The target in assay [1] is Voltage-gated inwardly rectifying potassium channel KCNH2 (Homo sapiens, UniProt Q12809). The assay can be described thus: Inhibition of human ERG measured after 4 hrs by fluorescence polarization assay.
In assay [2] the target is T1, Steroid hormone receptor ERR2 (Homo sapiens, UniProt O95718).
T1 sequence (O95718 whole entry): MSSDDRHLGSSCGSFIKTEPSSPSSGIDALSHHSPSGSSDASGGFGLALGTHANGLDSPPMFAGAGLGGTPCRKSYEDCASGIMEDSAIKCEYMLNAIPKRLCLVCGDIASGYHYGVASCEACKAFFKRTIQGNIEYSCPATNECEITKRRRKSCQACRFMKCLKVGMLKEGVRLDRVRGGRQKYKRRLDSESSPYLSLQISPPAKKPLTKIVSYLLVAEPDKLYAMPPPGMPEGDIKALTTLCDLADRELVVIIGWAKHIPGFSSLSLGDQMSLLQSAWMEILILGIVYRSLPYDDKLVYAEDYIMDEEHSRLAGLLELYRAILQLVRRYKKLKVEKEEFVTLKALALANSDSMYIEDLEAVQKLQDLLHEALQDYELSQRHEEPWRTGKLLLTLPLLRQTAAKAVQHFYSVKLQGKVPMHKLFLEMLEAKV
The assay can be described thus: Binding affinity to GST-tagged ERRbeta LBD (unknown origin) using fluorescein PGC1alpha as coactivator incubated for 1 hr by LanthaScreen TR-FRET co-regulator assay. (TR-FRET usually uses a lanthanide donor and a delayed reading to cut background.)

Protein sequences, listed by entry. Tags and fused reporters are not part of them. Lines headed by an entry give the natural chain unless they say otherwise; changes in a name come on top.
UniProt Q12809: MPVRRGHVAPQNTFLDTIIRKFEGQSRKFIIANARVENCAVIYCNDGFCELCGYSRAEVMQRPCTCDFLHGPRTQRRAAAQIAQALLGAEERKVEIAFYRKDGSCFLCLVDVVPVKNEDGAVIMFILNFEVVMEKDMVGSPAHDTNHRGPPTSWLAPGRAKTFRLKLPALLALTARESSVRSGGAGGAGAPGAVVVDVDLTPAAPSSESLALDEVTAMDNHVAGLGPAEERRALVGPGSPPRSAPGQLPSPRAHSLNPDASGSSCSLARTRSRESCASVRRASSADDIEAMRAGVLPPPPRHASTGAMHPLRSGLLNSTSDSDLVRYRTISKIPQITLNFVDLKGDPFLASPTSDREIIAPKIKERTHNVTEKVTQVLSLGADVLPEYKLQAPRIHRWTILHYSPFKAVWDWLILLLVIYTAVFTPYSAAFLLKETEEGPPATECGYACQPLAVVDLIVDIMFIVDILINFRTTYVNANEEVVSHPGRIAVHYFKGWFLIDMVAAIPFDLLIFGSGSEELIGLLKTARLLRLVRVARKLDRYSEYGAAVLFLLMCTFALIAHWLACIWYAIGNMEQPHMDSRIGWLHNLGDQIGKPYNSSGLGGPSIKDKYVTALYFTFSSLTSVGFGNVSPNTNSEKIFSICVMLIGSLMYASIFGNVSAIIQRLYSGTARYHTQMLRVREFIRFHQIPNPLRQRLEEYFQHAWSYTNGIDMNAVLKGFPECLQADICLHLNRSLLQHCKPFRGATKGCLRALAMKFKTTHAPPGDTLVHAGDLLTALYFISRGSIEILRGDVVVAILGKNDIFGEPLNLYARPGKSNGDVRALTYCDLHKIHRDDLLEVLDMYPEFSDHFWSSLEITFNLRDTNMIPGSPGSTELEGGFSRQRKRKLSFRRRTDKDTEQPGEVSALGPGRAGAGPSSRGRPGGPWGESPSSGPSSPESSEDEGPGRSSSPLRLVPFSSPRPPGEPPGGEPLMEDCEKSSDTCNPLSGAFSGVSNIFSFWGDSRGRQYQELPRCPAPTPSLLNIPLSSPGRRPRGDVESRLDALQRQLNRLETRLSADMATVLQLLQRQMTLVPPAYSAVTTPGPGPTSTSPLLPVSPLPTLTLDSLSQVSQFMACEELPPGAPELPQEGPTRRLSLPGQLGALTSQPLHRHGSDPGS

As for `CN(C)CCOc1ccc(/C(=C(/CCCO)c2ccccc2)c2ccc(O)cc2)cc1`, the values for the IC50 in assay [1] and in assay [2] were above 30 µM and above 10 µM, respectively.

Source of the values: ChEMBL document CHEMBL4680094, “Insights of a Lead Optimization Study and Biological Evaluation of Novel 4-Hydroxytamoxifen Analogs as Estrogen-Related Receptor γ (ERRγ) Inverse Agonists” (J Med Chem, 2016).
